Results from ChEMBL document CHEMBL3588754, “Parallel Synthesis of Hexahydrodiimidazodiazepines Heterocyclic Peptidomimetics and Their in Vitro and in Vivo Activities at μ (MOR), δ (DOR), and κ (KOR) Opioid Receptors” (J Med Chem, 2015).

Experiments:
Mus musculus [1] = experiment: Antinociceptive effect in icv dosed C57BL/6 mouse assessed as tail withdrawal latency measured up to 2 hrs by 55 degC Warm water tail withdrawal assay; details: strain C57BL/6, Tail
Mus musculus [2] = species: Mus musculus; experiment: Ratio of ED50 for antinociceptive effect in C57BL/6 mouse by 55 degC Warm water tail withdrawal assay to ED50 for analgesic activity in C57BL/6 mouse by acetic acid writhing assay; details: strain C57BL/6, Tail

Compound: CN(C(=O)Cc1ccc(Cl)c(Cl)c1)C1CCCCC1N1CCCC1 (configuration not stated)
- ED50 (Mus musculus [1]): 8.62 nM
- Ratio ED50 (Mus musculus [2]): 3.76
